According to patent US8663653B2, “Efficient cell culture system for hepatitis C virus genotype 2B” (priority 2008, dated 2014):

Tested on: JFH1-based recombinants of genotypes 1a, 1b, 2a, 2b, and 6a
Type: cell-based, hepatitis C virus

interferon-α2b
decrease in supernatant HCV RNA titers: ~2 log
